Source: paper PMC2783557 (Brain, behavior, and immunity, 2009)

System: Male CD-1 mice
Test: I-Aβ brain efflux after icv injection
Type: in vivo, mouse
Details: indomethacin 20 mg/kg ip 30 min before LPS 3 mg/kg; n = 6-10 mice/group

For COc1ccc2c(c1)c(CC(=O)O)c(C)n2C(=O)c1ccc(Cl)cc1 [Indomethacin], the “LPS effect on efflux of I-Aβ” value was “blocked”.
